In general, EC50 refers to the concentration giving half of the maximal effect. A higher EC50 goes with weaker potency. A word on the Kd: it is a measure of binding affinity in units of concentration. Higher therefore signals lower affinity.

Two substances from article doi:10.1101/2021.12.20.473401 can be followed below.

Assay [1] concerns the target SARS-CoV-2 Wuhan-Hu-1 spike glycoprotein (S) (SARS-CoV-2 Wuhan-Hu-1). Put plainly: FACS. (A flow cytometer gives signals particle by particle.)
For assay [2] the target is unchanged. Put plainly: SPR.

As to VHH-72-Fc, the EC50 in assay [1] was determined as 0.2 nM.

In assay [2], VHH-72 registered a Kd of 86.2 nM.
